The target in this experiment is T1, human recombinant LPA2 expressed in CHO cells (Homo sapiens, UniProt Q9HBW0).
T1 construct: expressed in transfected cells; host or cells: CHO cells (CHO-hLPA2 cell line)
Put plainly: FLIPR calcium mobilization assay, LPA2 antagonism in CHO-hLPA2 cells. The experiment is classed as cell-based. As to conditions: inhibition of LPA EC80 Ca2+ response, 30 min pre-incubation. As to the method:
The effectiveness of compounds of the present invention as LPA2 antagonist can be determined at the human recombinant LPA2 expressed in CHO cells, using a FLIPR assay in 384 well format.
CHO-hLPA2 cell lines are cultured in a humidified incubator at 5% C02 in DMEM/F-12 (1:1) MIXTURE with 2 mM Glutamax, supplemented with 10% of Foetal Bovine Serum, 1 mM Sodium Pyruvate, 11 mM Hepes and 1× Penicillin/Streptomycin. CHO hLPA2 cells are seeded into black walled clear-bottom 384-well plates (#781091, Greiner Bio-One GmbH) at a density of 7,500 cells per well in 50 μl culture media and grown overnight in a 37° C. humidified CO2-incubator. Serial dilutions (1:3 or 1:4, 11 points CRC) of compounds are performed in 100% DMSO at 200× the final concentration. […] The loaded cell plates are transferred into the FLIPR instrument and calcium responses are monitored during the on-line addition protocols. […] Intracellular peak fluorescence values subtracted by baseline fluorescence are exported and analysed to determine IC50 values, respectively. The calcium response is expressed as percentage of the maximal inhibition of the EC80 agonist response.
The raw data (peak height expressed as relative fluorescence units) are normalized and transformed into “percent of inhibition”. […]
For orientation: Calcium assays in cells follow changes in intracellular calcium, usually with a dye or a luminescent sensor.

Protein sequences, listed by entry. Tags and fused reporters are not part of them.
UniProt Q9HBW0, whole entry: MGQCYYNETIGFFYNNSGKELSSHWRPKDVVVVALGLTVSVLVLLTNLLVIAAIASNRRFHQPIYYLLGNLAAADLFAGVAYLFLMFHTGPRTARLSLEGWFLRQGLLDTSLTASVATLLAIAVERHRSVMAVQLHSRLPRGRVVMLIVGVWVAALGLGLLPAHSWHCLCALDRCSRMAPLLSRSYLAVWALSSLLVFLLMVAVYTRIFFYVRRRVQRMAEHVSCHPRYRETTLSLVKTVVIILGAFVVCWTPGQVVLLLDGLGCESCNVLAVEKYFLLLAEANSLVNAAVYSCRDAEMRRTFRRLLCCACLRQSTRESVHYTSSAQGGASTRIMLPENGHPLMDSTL

The structures appear in SMILES notation. pIC50: −log10 of the molar value. A value given as a limit tells only on which side of the number the result lay.

Our source for the IC50 values is patent US20240190860A1, “8-CYCLO-SUBSTITUTED QUINAZOLINE DERIVATIVES AS LPA RECEPTOR 2 INHIBITORS” (CHIESI FARMACEUTICI S.p.A., priority 2021, published 2024).

A word on the pIC50: it is the negative decadic logarithm of the IC50, by convention in mol/L. As to `COC(=O)Nc1nc(C)c(S(=O)(=O)N2CCN(C[C@H](C)Nc3ncnc4c(-c5ccc(CN6CCCC6)cc5)cccc34)CC2)s1` [Example 23, methyl N-[4-methyl-5-({4-[(2S)-2-[(8-{4-[(pyrrolidin-1-yl)methyl]phenyl}quinazolin-4-yl)amino]propyl]piperazin-1-yl}sulfonyl)-1,3-thiazol-2-yl]carbamate], the pIC50 was > 8.00.
